For 35 molecules, Ki results are on record in US20050020588A1, “Cysteine protease inhibitors” (priority 1999, published 2005).

Chains of the proteins cited; added tags and fusions are not shown. Residues count along the entry.
UniProt P07711, 114-333 limits assumed: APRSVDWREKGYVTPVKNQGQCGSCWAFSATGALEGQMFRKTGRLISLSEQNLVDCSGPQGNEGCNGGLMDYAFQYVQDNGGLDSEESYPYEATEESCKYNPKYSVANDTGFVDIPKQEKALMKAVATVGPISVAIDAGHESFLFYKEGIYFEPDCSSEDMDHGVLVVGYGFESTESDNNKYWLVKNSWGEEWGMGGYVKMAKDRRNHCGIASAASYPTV
UniProt P25774, 115-331 limits assumed: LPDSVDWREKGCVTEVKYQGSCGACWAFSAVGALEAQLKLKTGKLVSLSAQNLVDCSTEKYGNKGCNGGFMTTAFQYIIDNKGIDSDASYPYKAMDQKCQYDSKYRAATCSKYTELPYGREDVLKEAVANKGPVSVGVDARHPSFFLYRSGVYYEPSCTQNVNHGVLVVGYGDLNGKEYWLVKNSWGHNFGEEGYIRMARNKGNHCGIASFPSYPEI
UniProt P43235, 115-329 limits assumed: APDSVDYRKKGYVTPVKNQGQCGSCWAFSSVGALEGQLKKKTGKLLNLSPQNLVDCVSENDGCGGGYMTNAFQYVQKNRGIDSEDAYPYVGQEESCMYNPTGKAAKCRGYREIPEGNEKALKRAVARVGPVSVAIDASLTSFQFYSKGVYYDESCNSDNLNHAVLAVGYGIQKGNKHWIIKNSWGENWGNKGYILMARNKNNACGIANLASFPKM

The target in one experiment is Mammalian Cathepsin L (Homo sapiens, UniProt P07711). Briefly: Ki competitive inhibition, cathepsin L. Particulars: read-out: Ki competitive inhibition measurements vs Mammalian Cathepsin L; Table 1, second line of each CAP-P2 block. The method, then: (§1) Data were saved as text files and imported into Excel. The initial rates were determined by linear regression and then fitted to the competitive inhibition equation using SigmaPlot.
(§2) Assays were performed essentially as above. For cathepsin L, the buffer used was 100 mM sodium acetate, 1 mM EDTA, pH 5.5 and the substrate was D-Val-Leu-Lys-AMC with a highest concentration of 100 μM. For cathepsin K, the buffer used was 100 mM MES/Tris, 1 mM EDTA, pH 7.0 and the substrate was D-Ala-Leu-Lys-AMC with a highest concentration of 250 μM.

The target of a further experiment is Mammalian Cathepsin S (Homo sapiens, UniProt P25774). Briefly: Ki competitive inhibition, mammalian cathepsin S. The method, then: Cathepsin S (Mammalian, murine and rat)
Assays were performed in 100 mM sodium phosphate, 100 mM NaCl, pH 6.5 (buffer) in white 384 well plates (Coming Costar). Eight inhibitors were assayed per plate.
Inhibitor dilutions were performed on a 96 well V-bottomed polypropylene plate (Corning Costar). 100 μl of buffer was placed in wells 2-5 and 7-12 of rows A, B, C and D. Sufficient of each inhibitor at 10 mM in DMSO was placed into wells A1-D1 and A6-D6 to give the desired final concentration when the volume in the well was made up to 200 μl with buffer. Column 1 was made up to 200 μl with buffer, mixed by aspirating and dispensing 100 μl in the well, and 100 μl transferred to column 2. The pipette tips were changed and the mixing and transferral repeated to column 5. This process was repeated for columns 6-10.
Substrate dilutions were performed on a 96 deep well polypropylene plate (Beckman Coulter). 280 μl of buffer was placed in wells B-H of columns 1 and 2.70 μl of 10 mM boc-Val-Leu-Lys-AMC was placed in A1 and A2. 2×250 μl of buffer was added to wells A1 and A2, mixed by aspirating and dispensing 280 μl in the well, and 280 μl transferred to row B. The pipette tips were changed and the process repeated down the plate to row H.
Column 1 of the substrate dilution plate was distributed at 10 μl per well into alternate rows beginning at row A. Column 2 was distributed to alternate rows beginning at row B. Row A of the inhibitor dilution plate was distributed at 10 μl per well to alternate rows and columns starting at A1. Row B was distributed to alternate rows and columns starting at A2. Row C was distributed to alternate rows and columns starting at B1 and row D was distributed to alternate rows and columns starting at B2. The assay was started by the addition of 30 μl per well of 20 nM cathepsin S in buffer containing 10 mM 2-mercaptoethanol.
as §1

For another experiment, the target named is Mammalian Cathepsin K (Homo sapiens, UniProt P43235). Briefly: Ki competitive inhibition, cathepsin K. The note with it: read-out: Ki competitive inhibition measurements vs Mammalian Cathepsin K; Table 1, third line of each CAP-P2 block. The method, then: as §2
Convenient assays for cathepsin K arere carried out using human recombinant enzyme. Standard assay conditions for the determination of kinetic constants used a fluorogenic peptide substrate, typically H-D-Ala-Leu-Lys-AMC, and were determined in either 100 mM Mes/Tris, pH 7.0 containing 1 mM EDTA and 10 mM 2-mercaptoethanol or 100 mM Na acetate, pH 5.5 containing 5 mM EDTA and 20 mM cysteine. The enzyme concentration used was 5 nM. The stock substrate solution was prepared at 10 mM in DMSO. Screens were carried out at a fixed substrate concentration of 60 μM and detailed kinetic studies with doubling dilutions of substrate from 250 μM. The total DMSO concentration in the assay was kept below 3%. All assays were conducted at ambient temperature. Product fluorescence (excitation at 390 nm, emission at 460 nm) was monitored with a Labsystems Fluoroskan Ascent fluorescent plate reader. Product progress curves were generated over 15 minutes following generation of AMC product.
Potential inhibitors are screened using the above assay with variable concentrations of test compound. Reactions were initiated by addition of enzyme to buffered solutions of substrate and inhibitor. Ki values were calculated according to equation 1 [formula] where ν0 is the velocity of the reaction, V is the maximal velocity, S is the concentration of substrate with Michaelis constant of KM, and I is the concentration of inhibitor. Determination of Falcipain 2 Proteolytic Catalytic Activity

The mark [1] stands for this setting: read-out: Ki competitive inhibition measurements vs Mammalian Cathepsin S, Table 1, first line of each CAP-P2 block.
Where [2] appears, read: read-out: Ki (μM) Human, Mammalian Cathepsin S, Table 2, Human.

Read-outs that look alike come from different tables or passages of the source.

In general, Ki refers to a dissociation constant, usually derived from enzyme kinetics or from competition with a known ligand. As to `CC(C)CC[C@H](NC(=O)N1CCOCC1)C(=O)N[C@H]1COCC1=O`, the Ki on Mammalian Cathepsin L amounted to 71500 nM; on Mammalian Cathepsin S (setting [1]) it was 0.25 µM; on Mammalian Cathepsin K, 21600 nM.

As to `CC(C)C[C@H](NC(=O)c1ccc(O)cc1)C(=O)N[C@H]1COCC1=O`, the Ki was 240 nM at Mammalian Cathepsin L, 0.23 µM on Mammalian Cathepsin S (setting [1]) and 70 nM on Mammalian Cathepsin K.

As to `Cc1cc(C(=O)N[C@@H](CC(C)C)C(=O)N[C@H]2COCC2=O)oc1C`, the Ki on Mammalian Cathepsin L was 140 nM; on Mammalian Cathepsin S (setting [1]), 0.55 µM; on Mammalian Cathepsin K it was 440 nM.

As to `CC(C)CC[C@H](NC(=O)CCc1ccccc1)C(=O)N[C@@H]1C(=O)CO[C@@H]1C`, the Ki stood at 55800 nM at Mammalian Cathepsin L, 3.2 µM at Mammalian Cathepsin S (setting [1]) and 13000 nM at Mammalian Cathepsin K.

Take `CC(C)C[C@H](NC(=O)c1ccc(O)cc1)C(=O)N[C@@H]1C(=O)CO[C@H]1C`: the Ki at Mammalian Cathepsin L was found to be 2040 nM; at Mammalian Cathepsin S (setting [1]), 0.17 µM; at Mammalian Cathepsin K, 320 nM.

For the molecule `CC(C)C(C)(C)C[C@H](NC(=O)c1ccsc1)C(=O)N[C@@H]1C(=O)CO[C@H]1C`, the inhibition constant Ki at Mammalian Cathepsin L amounted to 99400 nM; at Mammalian Cathepsin S (setting [2]), 0.256 µM; on Mammalian Cathepsin S (setting [1]) it was 0.256 µM; at Mammalian Cathepsin K, 10000 nM.

Regarding `Cc1cc(C(=O)N[C@@H](Cc2ccc(O)cc2)C(=O)N[C@@H]2C(=O)CO[C@H]2C)oc1C`, the Ki at Mammalian Cathepsin L is 250 nM; at Mammalian Cathepsin S (setting [1]), 2.7 µM; on Mammalian Cathepsin K, > 100000 nM.

With `CC(C)CC[C@H](NC(=O)c1ccoc1)C(=O)N[C@H]1COCC1=O`, the Ki amounted to 49700 nM at Mammalian Cathepsin L, 0.66 µM at Mammalian Cathepsin S (setting [1]) and 16300 nM on Mammalian Cathepsin K.

As for `CC(C)C[C@H](NC(=O)c1ccccc1)C(=O)N[C@H]1COCC1=O`, the Ki was 150 nM at Mammalian Cathepsin L, 0.36 µM on Mammalian Cathepsin S (setting [1]) and 210 nM on Mammalian Cathepsin K.

Consider `CC[C@@H]1OCC(=O)[C@H]1NC(=O)[C@H](CC(C)(C)CC)NC(=O)c1ccsc1`, for which the Ki stood at 54600 nM at Mammalian Cathepsin L, 0.057 µM at Mammalian Cathepsin S (setting [2]), 0.057 µM on Mammalian Cathepsin S (setting [1]) and 1040 nM on Mammalian Cathepsin K.

On to `C[C@H]1OCC(=O)[C@H]1NC(=O)[C@H](CC(C)(C)C)NC(=O)c1ccoc1`, for which the Ki at Mammalian Cathepsin L amounted to 39000 nM; on Mammalian Cathepsin S (setting [1]), 0.18 µM; at Mammalian Cathepsin K, 1300 nM.

For the molecule `C[C@H]1OCC(=O)[C@H]1NC(=O)[C@H](CC(C)(C)C)NC(=O)CCc1ccccc1`, the Ki came out at 87100 nM on Mammalian Cathepsin L, 0.94 µM on Mammalian Cathepsin S (setting [1]) and 5700 nM at Mammalian Cathepsin K.

As for `CCCC[C@H](NC(=O)c1ccc(O)cc1)C(=O)N[C@H]1C(=O)CO[C@H]1C`, the Ki on Mammalian Cathepsin L came to 21100 nM; on Mammalian Cathepsin S (setting [1]) it was 0.57 µM; at Mammalian Cathepsin K, 13400 nM.

For `Cc1cc(C(=O)N[C@@H](Cc2ccc(O)cc2)C(=O)N[C@H]2COCC2=O)oc1C`, the Ki at Mammalian Cathepsin S (setting [1]) is 1.5 µM; at Mammalian Cathepsin K, > 100000 nM.

For `Cc1cc(C(=O)N[C@@H](CC(C)C)C(=O)N[C@@H]2C(=O)CO[C@@H]2C)oc1C`, the inhibition constant (Ki) came to 120 nM on Mammalian Cathepsin L, 0.51 µM on Mammalian Cathepsin S (setting [1]) and 440 nM on Mammalian Cathepsin K.

Take `O=C(N[C@@H](Cc1ccc(O)cc1)C(=O)N[C@@H]1COCC1=O)c1ccc(O)cc1`: the results for the Ki at Mammalian Cathepsin L, at Mammalian Cathepsin S (setting [1]) and on Mammalian Cathepsin K were 350 nM, 0.72 µM and > 100000 nM, respectively.

Turning to `CCC(C)(C)C[C@H](NC(=O)c1ccsc1)C(=O)N[C@@H]1C(=O)CO[C@H]1C`, the Ki on Mammalian Cathepsin L was 79600 nM; on Mammalian Cathepsin S (setting [2]) it was 0.2 µM; on Mammalian Cathepsin S (setting [1]) it was 0.2 µM; on Mammalian Cathepsin K, 5950 nM.

For the molecule `C[C@H]1OCC(=O)[C@H]1NC(=O)[C@H](CC(C)(C)C)NC(=O)c1ccccc1`, the Ki was 6600 nM at Mammalian Cathepsin L, 0.42 µM at Mammalian Cathepsin S (setting [1]) and 850 nM at Mammalian Cathepsin K.

Take `CC(C)C[C@H](NC(=O)c1ccc(N(C)C)cc1)C(=O)N[C@@H]1C(=O)CO[C@@H]1C`: the Ki on Mammalian Cathepsin L was determined as 690 nM; on Mammalian Cathepsin S (setting [1]), 2.8 µM; on Mammalian Cathepsin K, 15 nM.

As to `CCCC[C@H](NC(=O)c1ccc(N(C)C)cc1)C(=O)N[C@@H]1C(=O)CO[C@@H]1C`, the Ki at Mammalian Cathepsin L came to 10500 nM; at Mammalian Cathepsin S (setting [1]), 4.1 µM; at Mammalian Cathepsin K, 240 nM.

Take `CC(C)CC[C@H](NC(=O)c1ccsc1)C(=O)N[C@@H]1C(=O)CO[C@H]1C`: the Ki at Mammalian Cathepsin S (setting [2]) amounted to 0.28 µM.

For `CCCC[C@H](NC(=O)c1ccc(N(C)C)cc1)C(=O)N[C@H]1COCC1=O`, the values for the Ki on Mammalian Cathepsin L, at Mammalian Cathepsin S (setting [1]) and at Mammalian Cathepsin K were 10200 nM, 5.4 µM and 260 nM, respectively.

Turning to `CCn1nc(C)cc1C(=O)N[C@@H](Cc1ccc(O)cc1)C(=O)N[C@@H]1C(=O)CO[C@@H]1C`, the Ki at Mammalian Cathepsin L is 60 nM; at Mammalian Cathepsin S (setting [1]), 4.8 µM; at Mammalian Cathepsin K, > 100000 nM.

Take `CC(C)C[C@H](NC(=O)c1ccoc1)C(=O)N[C@H]1C(=O)CO[C@H]1C`: the Ki was 28400 nM at Mammalian Cathepsin L, 0.39 µM on Mammalian Cathepsin S (setting [1]) and 3700 nM on Mammalian Cathepsin K.

As for `CC(C)(C)C[C@H](NC(=O)c1ccoc1)C(=O)N[C@@H]1COCC1=O`, the Ki on Mammalian Cathepsin L was 68100 nM; at Mammalian Cathepsin S (setting [1]), 0.24 µM; at Mammalian Cathepsin K, 910 nM.

Regarding `CCCC[C@H](NC(=O)c1ccc(N(C)C)cc1)C(=O)N[C@@H]1COCC1=O`, the Ki is 15200 nM on Mammalian Cathepsin L, 5.7 µM at Mammalian Cathepsin S (setting [1]) and 130 nM at Mammalian Cathepsin K.

In the case of `O=C(N[C@@H](Cc1ccc(O)cc1)C(=O)N[C@@H]1COCC1=O)c1ccccc1`, the inhibition constant (Ki) was 360 nM on Mammalian Cathepsin L, 1.8 µM on Mammalian Cathepsin S (setting [1]) and > 100000 nM at Mammalian Cathepsin K.

In the case of `CC(C)CC[C@H](NC(=O)c1ccc(O)cc1)C(=O)N[C@@H]1C(=O)CO[C@@H]1C`, the Ki was found to be 15100 nM at Mammalian Cathepsin L, 0.68 µM at Mammalian Cathepsin S (setting [1]) and 3100 nM at Mammalian Cathepsin K.

In the case of `CC(C)C[C@H](NC(=O)c1ccc(O)cc1)C(=O)N[C@@H]1C(=O)CO[C@@H]1C`, the Ki stood at 480 nM on Mammalian Cathepsin L, 0.49 µM on Mammalian Cathepsin S (setting [1]) and 83 nM on Mammalian Cathepsin K.

For the molecule `CC[C@@H]1OCC(=O)[C@H]1NC(=O)[C@H](CC(C)(C)CC)NC(=O)c1ccoc1`, the Ki on Mammalian Cathepsin L is > 100000 nM; at Mammalian Cathepsin S (setting [2]) it was 0.06 µM; at Mammalian Cathepsin S (setting [1]) it was 0.06 µM; on Mammalian Cathepsin K, 2970 nM.

On to `CC(C)CC[C@H](NC(=O)c1ccccc1)C(=O)N[C@H]1COCC1=O`, for which the Ki is 5100 nM on Mammalian Cathepsin L, 0.8 µM at Mammalian Cathepsin S (setting [1]) and 6600 nM at Mammalian Cathepsin K.

As to `C[C@@H]1OCC(=O)[C@H]1NC(=O)[C@H](Cc1ccc(O)cc1)NC(=O)c1ccc(O)cc1`, the figures for the Ki on Mammalian Cathepsin L, at Mammalian Cathepsin S (setting [1]) and at Mammalian Cathepsin K were 1400 nM, 0.77 µM and > 100000 nM, respectively.

Consider `CC(C)C[C@H](NC(=O)c1ccc(N(C)C)cc1)C(=O)N[C@@H]1C(=O)CO[C@H]1C`, for which the Ki at Mammalian Cathepsin L was determined as 4900 nM; at Mammalian Cathepsin S (setting [1]), 3.7 µM; at Mammalian Cathepsin K, 150 nM.

As for `CC(C)CC[C@H](NC(=O)N1CCOCC1)C(=O)N[C@@H]1COCC1=O`, the figures for the Ki on Mammalian Cathepsin L, on Mammalian Cathepsin S (setting [1]) and on Mammalian Cathepsin K were 58200 nM, 0.46 µM and 16400 nM, respectively.

For the molecule `CC(C)C[C@H](NC(=O)c1ccccc1)C(=O)N[C@@H]1C(=O)CO[C@@H]1C`, the Ki turned out to be 310 nM on Mammalian Cathepsin L, 0.43 µM at Mammalian Cathepsin S (setting [1]) and 430 nM on Mammalian Cathepsin K.
